Results from ChEMBL document CHEMBL1121693 (1981).

Assays:
Mus musculus [1] = assay: Ataxia produced in mice by intraperitoneal administration of compound at a dose of 410 umol/kg; total no. of mice tested is 5
Mus musculus [2] = assay: Ataxia produced in mice by intraperitoneal administration of compound at a dose of 410 umol/kg; total no. of mice tested is 4
Mus musculus [3] = assay: Number of deaths occurred after intraperitoneal administration of Compound at a dose of 262 umol/kg; total no. of mice tested is 5
Mus musculus [4] = assay: Ataxia produced in mice by intraperitoneal administration of compound at a dose of 512 umol/kg; total no. of mice tested is 1
Mus musculus [5] = assay: Number of deaths occurred after intraperitoneal administration of Compound at a dose of 328 umol/kg; total no. of mice tested is 5
Mus musculus [6] = assay: Number of deaths occurred after intraperitoneal administration of Compound at a dose of 410 umol/kg; total no. of mice tested is 5
Mus musculus [7] = assay: Ataxia produced in mice by intraperitoneal administration of compound at a dose of 262 umol/kg; total no. of mice tested is 5
Mus musculus [8] = assay: Number of deaths occurred after intraperitoneal administration of Compound at a dose of 512 umol/kg; total no. of mice tested is 5
Mus musculus [9] = assay: Ataxia produced in mice by intraperitoneal administration of compound at a dose of 512 umol/kg; total no. of mice tested is 0
Mus musculus [10] = assay: Ataxia produced in mice by intraperitoneal administration of compound at a dose of 328 umol/kg; total no. of mice tested is 5
Mus musculus [11] = assay: Ataxia produced in mice by intraperitoneal administration of compound at a dose of 410 umol/kg; total no. of mice tested is 3

**Q.** Which No. of mice (Mus musculus [1]) does the source give for O[C@H]1CC[C@](c2ccccc2)(N2CCCCC2)CC1 here?
**A.** Its No. of mice is 4.

**Q.** And the No. of mice (Mus musculus [2])?
**A.** Its No. of mice is 3.

**Q.** And the No. of mice (Mus musculus [3])?
**A.** The No. of mice was 0.

**Q.** And the No. of mice (Mus musculus [4])?
**A.** The No. of mice was 1.

**Q.** And the No. of mice (Mus musculus [5])?
**A.** Its No. of mice is 0.

**Q.** What about the No. of mice (Mus musculus [6]) of the same molecule?
**A.** Its No. of mice is 0.

**Q.** What about the No. of mice (Mus musculus [7]) of the same molecule?
**A.** Its No. of mice is 0.

**Q.** And the No. of mice (Mus musculus [8])?
**A.** Its No. of mice is 0.

**Q.** How did the No. of mice (Mus musculus [9]) turn out when O[C@H]1CC[C@@](c2ccccc2)(N2CCCCC2)CC1 was run?
**A.** The No. of mice was 0.

**Q.** And the No. of mice (Mus musculus [3])?
**A.** Its No. of mice is 0.

**Q.** What about the No. of mice (Mus musculus [5]) of the same molecule?
**A.** Its No. of mice is 0.

**Q.** What about the No. of mice (Mus musculus [10]) of the same molecule?
**A.** Its No. of mice is 3.

**Q.** What about the No. of mice (Mus musculus [6]) of the same molecule?
**A.** The No. of mice was 0.

**Q.** What about the No. of mice (Mus musculus [7]) of the same molecule?
**A.** The No. of mice was 1.

**Q.** And the No. of mice (Mus musculus [11])?
**A.** The No. of mice was 2.

**Q.** What about the No. of mice (Mus musculus [8]) of the same molecule?
**A.** The No. of mice was 5.
